Source: patent publication US8933113B2 (Merck Sharp & Dohme Corp., priority 2011, dated 2015)

Chains of the proteins cited; added tags and fusions are not shown.
UniProt P08235, whole entry: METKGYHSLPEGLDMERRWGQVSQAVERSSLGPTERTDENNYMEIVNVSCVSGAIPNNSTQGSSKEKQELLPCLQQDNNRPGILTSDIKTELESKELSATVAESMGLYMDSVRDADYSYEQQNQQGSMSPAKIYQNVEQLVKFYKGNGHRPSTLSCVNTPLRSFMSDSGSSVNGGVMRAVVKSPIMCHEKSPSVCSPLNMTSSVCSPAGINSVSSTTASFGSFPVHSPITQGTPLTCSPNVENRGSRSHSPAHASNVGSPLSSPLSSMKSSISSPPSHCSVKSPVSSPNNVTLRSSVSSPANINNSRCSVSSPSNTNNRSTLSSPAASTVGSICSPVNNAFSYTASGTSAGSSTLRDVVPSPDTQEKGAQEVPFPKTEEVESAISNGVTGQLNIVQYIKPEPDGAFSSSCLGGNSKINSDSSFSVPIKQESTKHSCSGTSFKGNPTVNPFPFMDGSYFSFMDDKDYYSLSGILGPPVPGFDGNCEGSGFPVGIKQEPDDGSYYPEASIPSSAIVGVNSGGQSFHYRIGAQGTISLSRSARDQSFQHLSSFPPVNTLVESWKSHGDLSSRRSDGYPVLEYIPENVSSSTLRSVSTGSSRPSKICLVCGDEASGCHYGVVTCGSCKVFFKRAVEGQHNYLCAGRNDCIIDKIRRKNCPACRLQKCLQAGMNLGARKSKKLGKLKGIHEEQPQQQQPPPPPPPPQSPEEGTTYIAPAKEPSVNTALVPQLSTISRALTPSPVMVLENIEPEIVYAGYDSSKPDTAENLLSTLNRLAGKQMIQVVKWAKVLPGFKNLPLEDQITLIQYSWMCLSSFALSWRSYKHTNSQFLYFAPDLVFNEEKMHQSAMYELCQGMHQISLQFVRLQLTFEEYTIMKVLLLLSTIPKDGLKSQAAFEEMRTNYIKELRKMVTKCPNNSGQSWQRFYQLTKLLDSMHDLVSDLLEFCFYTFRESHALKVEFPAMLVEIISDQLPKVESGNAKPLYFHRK

Target: full-length human Mineralocorticoid Receptor (MR) (Homo sapiens, UniProt P08235)
Test: human MR NH Pro assay (PathHunter Protein:Protein interaction assay), MR antagonist activity
Format: cell-based
Details: read-out: Primary Assay IP rating (IP = inflection point for a given dose-response titration curve); PathHunter CHO-K1 cells overexpressing human MR; aldosterone about 0.3 nM; 6 hours at 37° C.; luminescence

CCC(CCF)(c1ccc(Cl)cc1)n1ccc2c(NS(C)(=O)=O)cccc21 (single isomer, unassigned)
IC50: < 100 nM
